Measurements from ChEMBL document CHEMBL5058646 (2022).

How the values were obtained:
Myoneurin (Homo sapiens) = target: T1, Myoneurin (Homo sapiens) (UniProt Q9NPC7); settings: SUD4
T1 sequence (whole entry): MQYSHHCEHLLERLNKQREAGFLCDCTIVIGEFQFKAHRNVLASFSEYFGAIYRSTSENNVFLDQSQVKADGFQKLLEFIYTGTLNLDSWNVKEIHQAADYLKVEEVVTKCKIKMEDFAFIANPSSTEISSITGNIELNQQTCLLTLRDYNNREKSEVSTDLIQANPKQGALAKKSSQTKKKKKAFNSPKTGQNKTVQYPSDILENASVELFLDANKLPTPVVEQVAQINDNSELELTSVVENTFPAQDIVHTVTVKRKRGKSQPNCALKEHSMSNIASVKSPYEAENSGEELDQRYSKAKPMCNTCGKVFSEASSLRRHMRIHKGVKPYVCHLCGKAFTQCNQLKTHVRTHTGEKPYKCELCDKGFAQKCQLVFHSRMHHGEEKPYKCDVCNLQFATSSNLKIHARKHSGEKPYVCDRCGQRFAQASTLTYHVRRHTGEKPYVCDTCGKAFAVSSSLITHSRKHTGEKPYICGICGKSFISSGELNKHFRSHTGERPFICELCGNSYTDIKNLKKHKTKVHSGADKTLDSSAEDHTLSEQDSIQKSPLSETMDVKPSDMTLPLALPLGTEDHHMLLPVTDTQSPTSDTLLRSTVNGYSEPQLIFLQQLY

[1] = target: T2, Zinc finger and BTB domain-containing protein 44 (Homo sapiens) (UniProt Q8NCP5); settings: SUD4
T2 sequence (whole entry): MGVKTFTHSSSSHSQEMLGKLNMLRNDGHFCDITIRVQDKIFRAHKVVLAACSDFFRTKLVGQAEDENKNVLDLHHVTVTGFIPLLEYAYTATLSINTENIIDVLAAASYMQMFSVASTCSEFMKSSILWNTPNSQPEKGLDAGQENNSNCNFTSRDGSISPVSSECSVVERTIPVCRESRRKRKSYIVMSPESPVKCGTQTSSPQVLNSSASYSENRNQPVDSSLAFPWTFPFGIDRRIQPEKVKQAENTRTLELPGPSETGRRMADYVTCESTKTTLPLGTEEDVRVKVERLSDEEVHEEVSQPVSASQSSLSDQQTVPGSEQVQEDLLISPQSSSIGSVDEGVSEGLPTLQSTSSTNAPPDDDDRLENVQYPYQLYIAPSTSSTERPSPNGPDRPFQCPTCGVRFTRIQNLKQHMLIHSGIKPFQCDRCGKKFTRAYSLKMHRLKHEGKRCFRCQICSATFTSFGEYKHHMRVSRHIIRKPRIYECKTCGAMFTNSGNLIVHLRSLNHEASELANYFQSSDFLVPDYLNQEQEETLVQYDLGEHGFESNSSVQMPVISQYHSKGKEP

[2] = target: T3, Telomere zinc finger-associated protein (Homo sapiens) (UniProt P10074); settings: OCI-Ly1
T3 sequence (whole entry): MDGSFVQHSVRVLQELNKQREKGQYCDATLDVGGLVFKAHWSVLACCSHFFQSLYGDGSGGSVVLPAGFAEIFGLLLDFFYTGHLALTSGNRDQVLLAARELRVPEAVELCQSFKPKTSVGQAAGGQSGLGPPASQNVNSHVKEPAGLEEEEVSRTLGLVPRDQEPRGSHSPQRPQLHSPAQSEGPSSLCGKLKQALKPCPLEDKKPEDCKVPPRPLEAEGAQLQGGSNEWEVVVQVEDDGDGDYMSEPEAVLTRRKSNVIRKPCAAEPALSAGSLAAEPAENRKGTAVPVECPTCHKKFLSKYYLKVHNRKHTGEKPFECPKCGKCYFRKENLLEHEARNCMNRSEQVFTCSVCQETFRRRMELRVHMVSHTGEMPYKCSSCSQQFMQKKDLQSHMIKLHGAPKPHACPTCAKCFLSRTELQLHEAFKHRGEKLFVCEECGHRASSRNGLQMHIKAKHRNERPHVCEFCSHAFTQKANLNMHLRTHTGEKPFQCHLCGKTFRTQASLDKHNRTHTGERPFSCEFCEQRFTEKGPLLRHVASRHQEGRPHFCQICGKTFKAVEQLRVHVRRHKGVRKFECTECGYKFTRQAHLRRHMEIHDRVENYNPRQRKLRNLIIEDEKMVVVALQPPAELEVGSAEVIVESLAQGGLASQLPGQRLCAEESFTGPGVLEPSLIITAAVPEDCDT

Normalized abundances for DMSO (Myoneurin (Homo sapiens)): 122
Normalized abundances for compound (Myoneurin (Homo sapiens)): 111
Normalized abundances for DMSO [1]: 565
Normalized abundances for compound [1]: 480
Normalized abundances for DMSO [2]: 556
Normalized abundances for compound [2]: 564
SMILES: C[C@@H]1CN(c2ncc(Cl)c(Nc3ccc4c(c3)n(CCC(C)(C)O)c(=O)n4C)n2)C[C@H](C)C1(F)F
